For 2 compounds, inhibition results are on record in PubChem BioAssay AID374 (University of Pittsburgh Molecular Library Screening Center, 2006).

Protein sequences, listed by entry. Tags and fused reporters are not part of them.
UniProt P28562, whole entry: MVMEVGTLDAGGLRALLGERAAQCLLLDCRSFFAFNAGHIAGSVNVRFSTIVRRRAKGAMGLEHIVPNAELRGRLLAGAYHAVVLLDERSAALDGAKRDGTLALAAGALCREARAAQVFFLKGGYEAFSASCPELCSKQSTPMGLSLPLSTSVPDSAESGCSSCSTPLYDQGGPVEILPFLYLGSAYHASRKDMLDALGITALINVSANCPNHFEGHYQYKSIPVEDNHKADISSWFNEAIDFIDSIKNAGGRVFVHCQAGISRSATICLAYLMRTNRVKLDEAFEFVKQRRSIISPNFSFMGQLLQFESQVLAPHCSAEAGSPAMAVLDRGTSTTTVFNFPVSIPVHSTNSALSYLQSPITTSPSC

Structures are written as SMILES. This is a selection; strong and weak results do not stand in their true shares. Some tests of the compounds listed are not included; inactive here does not mean inactive elsewhere. Activity calls are given as the source filed them.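 Rule for the calls: active = inhibition above about 50% (limit read from the data); inconclusive = inhibition over screen mean plus 3 SD, below that limit; inactive = the rest.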

This test has as its target Dual specificity protein phosphatase 1 (Homo sapiens) (UniProt P28562). In words: MKP-1 phosphatase inhibitors, primary screen, biochemical, in vitro (AID 374).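 Note: 0% = DMSO max control wells and 100% = wells with enzyme stopped by NaOH.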 The settings on record: recombinant MKP-1, OMFP hydrolysis fluorescence; active compounds read high;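 compounds tested at a single concentration somewhere between 10 and 100 µM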.
Regarding `CN(C)c1cccc(C(=O)NCC2(N(C)C)CCCCC2)c1`, the inhibition is inactive: -3.18%. The same measure for `O=C(OC1CN2CCC1CC2)C(CO)(c1ccccc1)c1ccccc1` (configuration not stated): inactive: -7.36%.
